In US20140093548A1, “METHOD FOR DECONTAMINATING THE SKIN WITH TEXTILE COMPOSITE MATERIAL” (published 2014):

Test system: skin on the flexor forearm (stratum corneum)
Assay: Skin decontamination of volunteers analysed by tape stripping (UV filter absorption at 310 nm)
Details: 10 minutes after application, without decontamination

Structure (SMILES): CCCCC(CC)COC(=O)C=Cc1ccc(OC)cc1 (centres unmarked)
- deepest cell layer of corneocytes in which the UV filter could be detected: ≤ 7 cell layers
- topically applied UV filter detected in the first 10 tape strips: About 90%
